Literature values in paper PMC11604869, “Stereoselective block of the hERG potassium channel by the Class Ia antiarrhythmic drug disopyramide” (Cellular and Molecular Life Sciences: CMLS, 2024).

Details: similar doses of each enantiomer

Row | SMILES | mean total plasma concentrations [µM]
1 | CC(C)N(CC[C@@](C(N)=O)(c1ccccc1)c1ccccn1)C(C)C [R(−) disopyramide] | 6.33
2 | CC(C)N(CC[C@](C(N)=O)(c1ccccc1)c1ccccn1)C(C)C [S(+) disopyramide] | 6.86
